Experimental data taken from BindingDB's records for patent US9656988 (Pharmacyclics, 2017).

Amino acid sequences for entries named in this document (tags omitted).
UniProt P00533, whole entry: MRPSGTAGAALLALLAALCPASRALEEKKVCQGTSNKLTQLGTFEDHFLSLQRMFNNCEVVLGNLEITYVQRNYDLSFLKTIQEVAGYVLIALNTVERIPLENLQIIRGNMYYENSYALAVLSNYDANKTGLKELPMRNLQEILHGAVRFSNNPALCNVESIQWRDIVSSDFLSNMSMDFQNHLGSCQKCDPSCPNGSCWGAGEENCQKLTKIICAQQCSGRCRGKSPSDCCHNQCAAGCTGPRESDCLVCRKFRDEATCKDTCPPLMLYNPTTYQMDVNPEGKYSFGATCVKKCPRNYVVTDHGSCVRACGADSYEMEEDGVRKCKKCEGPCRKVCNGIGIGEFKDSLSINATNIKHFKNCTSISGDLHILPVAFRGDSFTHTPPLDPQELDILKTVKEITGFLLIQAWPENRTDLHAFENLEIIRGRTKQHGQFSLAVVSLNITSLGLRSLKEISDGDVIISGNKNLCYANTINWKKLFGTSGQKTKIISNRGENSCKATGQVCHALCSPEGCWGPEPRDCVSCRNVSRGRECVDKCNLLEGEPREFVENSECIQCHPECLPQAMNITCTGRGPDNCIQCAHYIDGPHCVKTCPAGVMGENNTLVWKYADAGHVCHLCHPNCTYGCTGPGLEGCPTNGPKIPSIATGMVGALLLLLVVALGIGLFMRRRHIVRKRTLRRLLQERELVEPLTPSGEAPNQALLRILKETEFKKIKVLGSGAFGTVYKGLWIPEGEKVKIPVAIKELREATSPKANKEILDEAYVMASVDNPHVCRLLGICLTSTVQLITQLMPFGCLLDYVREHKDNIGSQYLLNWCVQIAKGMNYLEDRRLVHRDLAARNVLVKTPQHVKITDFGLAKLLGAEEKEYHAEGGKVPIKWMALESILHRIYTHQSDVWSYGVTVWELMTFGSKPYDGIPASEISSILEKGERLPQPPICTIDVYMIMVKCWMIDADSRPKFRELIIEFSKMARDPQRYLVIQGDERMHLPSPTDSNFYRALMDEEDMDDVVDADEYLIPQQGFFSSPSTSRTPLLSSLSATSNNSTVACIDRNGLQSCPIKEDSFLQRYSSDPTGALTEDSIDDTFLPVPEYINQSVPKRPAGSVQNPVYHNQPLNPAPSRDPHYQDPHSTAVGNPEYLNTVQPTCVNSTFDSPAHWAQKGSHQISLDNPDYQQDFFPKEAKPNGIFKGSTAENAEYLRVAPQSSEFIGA

Biological target: Epidermal growth factor receptor (Homo sapiens, UniProt P00533)

IC50 | Compound
in the range around 5.5 µM | CC#CC(=O)N1CCC[C@@H](N(C)c2cnc(C(N)=O)c(Nc3ccc(C(=O)N4CCOCC4)cc3)n2)C1 [US9656988, Example 157]
in the range around 0.55 µM | CN(C)C(=O)N[C@@H]1CCCN(c2cnc(C(N)=O)c(Nc3ccc(C4CCN(C5CC5)CC4)cc3)n2)C1 [US9656988, Example 206]
